Data reported in PubChem BioAssay (NCI).
Some structures show a salt or complex split into parts, the way the source records it.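 Values below derive from 48-hour exposures of cells grown in 96-well plates, with endpoints linearly interpolated between the two concentrations bracketing the appropriate inhibition level. At the GI50, growth is halved. Definition used: TGI = concentration required for complete inhibition of growth.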

Test system: MDA-MB-468 breast
Test: NCI anticancer screen, dose series, 48 h

**Q.** For `O=[N+]([O-])c1cc([N+](=O)[O-])c(O)c([N+](=O)[O-])c1.c1ccc([I+]c2ccccc2)cc1`, which GI50 is on record?
**A.** 628 nM

**Q.** And the TGI?
**A.** > 100000 nM
